# Measurements as given in US20250214977A1, “STAT6 INHIBITORS AND USES THEREOF” (Kymera Therapeutics, Inc., priority 2024, published 2025).
# The chains behind the UniProt entries cited, without tags or fusion partners. Residues count along the entry.
# UniProt P42226, 123-632 limits assumed: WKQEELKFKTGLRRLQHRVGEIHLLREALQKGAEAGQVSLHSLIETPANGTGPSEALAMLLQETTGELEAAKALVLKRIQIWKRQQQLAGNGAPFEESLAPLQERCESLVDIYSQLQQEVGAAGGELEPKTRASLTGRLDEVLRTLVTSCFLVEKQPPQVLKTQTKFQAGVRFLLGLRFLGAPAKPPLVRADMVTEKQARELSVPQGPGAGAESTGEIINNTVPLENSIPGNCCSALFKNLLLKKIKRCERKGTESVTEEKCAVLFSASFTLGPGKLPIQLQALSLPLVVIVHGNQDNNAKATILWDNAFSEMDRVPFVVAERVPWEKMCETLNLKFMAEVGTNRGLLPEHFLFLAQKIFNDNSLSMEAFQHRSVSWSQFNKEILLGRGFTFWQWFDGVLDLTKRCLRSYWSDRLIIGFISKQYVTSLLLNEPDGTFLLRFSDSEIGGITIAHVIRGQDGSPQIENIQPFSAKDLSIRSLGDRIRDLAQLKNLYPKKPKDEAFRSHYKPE
# Columns and labels:
# [1] = test system: Phosphorylation of STAT6 in human A549 cells; test: Phosphorylated STAT6 (pSTAT6) flow cytometry assay in human A549 cells; conditions: read-out: STAT6 IL4 pSTAT6 assay in A549 cells: Average IC50
# Source text: Example 3. Phosphorylated STAT6 (pSTAT6) Flow Cytometry Assay in Human A549 Cells
# Phosphorylation of STAT6 in human A549 cells was quantitatively measured using flow cytometry technology.
# [2] = target: biotinylated truncated STAT6 (123-632)-avi (Homo sapiens, UniProt P42226); test: Homogenous Time-Resolved Fluorescence (HTRF) binding assay; conditions: read-out: STAT6 HTRF: Average IC50, 0.15 nM biotinylated truncated STAT6 (123-632)-avi, 20 nM fluorescein-labeled probe
# Protocol: Example 1. Homogenous Time-Resolved Fluorescence (HTRF) Binding Assay
# HTRF binding assays were performed using 0.15 nM biotinylated truncated STAT6 (123-632)-avi purified from E. coli, 1× Streptavidin-terbium (CisBio) prepared by mixing SA-Tb in PPI detection buffer (CisBio), 20 nM proprietary fluorescein-labeled probe, and test compounds in assay buffer consisting of 50 mM HEPES-Na pH 7.5, 100 mM NaCl, 1 mM EDTA, 2 mM DTT, 0.1% Tween-20 with a final volume of 20 uL. Compound stocks were dissolved at 10 mM in 100% DMSO and 11 point titration with 3 fold serial dilution was performed in white, opaque 384 well microplates. Reaction plates were incubated at room temperature for 30 minutes. Plates were centrifuged at low rpm for 5 mins, and the ratio of fluorescence intensities were measured at emission wavelengths for fluorescein acceptor (520 nm) and terbium donor (495 nm) on Envision Plate reader. % Inhibition was calculated from the 520/495 ratio generated by using proprietary positive control compound for 100% inhibition and DMSO only reactions for 0% inhibition. Data was processed and dose response curves were generated using GraphPad Prism to determine the concentration required for inhibiting 50% of the HTRF signal (IC50).
SMILES,IC50 [1],IC50 ([2]; 30 minutes at room temperature),IC50 ([2]; 30 minutes room temperature)
COc1ccccc1-c1cc(C2=CCCN(C(=O)CCn3ccnn3)C2)c(F)c2[nH]c(C(=O)N3CCc4c(o[nH]c4=O)C3)cc12,< 100 nM,< 100 nM,
Cc1ccccc1-c1cc(C2=CCCN(C(=O)CCn3ccnn3)C2)c(F)c2[nH]c(C(=O)N3CCN(c4ncccc4OC4CC4)CC3)cc12,< 100 nM,< 100 nM,
"CCc1ccncc1-c1cc([C@H]2CCCN(C(=O)CCn3ccnn3)C2)c(F)c2[nH]c(C(=O)N3Cc4cnn(C)c4C3)cc12 (single isomer, unassigned)",10000 to 100000 nM,10000 to 100000 nM,
COc1ccccc1-c1cc(C2=CCCN(C(=O)CCn3ccnn3)C2)c(F)c2[nH]c(C(=O)N3CCN(c4cccc5nncn45)CC3)cc12,,< 100 nM,
COc1ccccc1-c1cc(C2=CCCN(C(=O)CCn3ccnn3)C2)c(F)c2cc(C(F)F)oc12,,,1000 to 10000 nM
COc1cc(N(C)C)ccc1-c1cc(C2=CCCN(C(=O)CCn3ccnn3)C2)c(F)c2[nH]c(C(=O)N3CCN(C4CC4)CC3)cc12,< 100 nM,< 100 nM,
CC(C)Oc1ncccc1-c1cc(C2=CCCN(C(=O)CCn3ccnn3)C2)cc2cc(C(=O)N(C)C)oc12,,,< 100 nM
CC(=O)N1CCC=C(c2cc(-c3ccc(F)cc3C)c3cc(C(=O)N(C)C)[nH]c3c2F)C1,100 to 1000 nM,100 to 1000 nM,
COc1cc(F)cnc1N1CCN(C(=O)c2cc3c(-c4ccccc4C#N)cc(C4=CCCN(C(=O)CCn5ccnn5)C4)c(F)c3[nH]2)CC1,< 100 nM,< 100 nM,
COc1cc(F)c(F)cc1-c1cc(C2=CCCN(C(=O)CCn3ccnn3)C2)c(F)c2[nH]c(C(=O)N3CCN(c4ncc(Cl)cc4OC)CC3)cc12,100 to 1000 nM,100 to 1000 nM,
CC(=O)N1CCC=C(c2cc(-c3ccc4c(c3)CC(=O)N4)c3cc(C(=O)N(C)C)[nH]c3c2F)C1,< 100 nM,< 100 nM,
"COc1ccccc1-c1cc(C2=CCCN(C(=O)CCn3ccnn3)C2)c(F)c2[nH]c(C(=O)N3CCN(C)C(=O)[C@H]3C)cc12 (single isomer, unassigned)",,,100 to 1000 nM
"CCc1nc(C)ccc1-c1cc(C(=O)N2CCN(C3CC3)CC2)cc2c(F)c(C3CCCN(C(=O)CCc4nccs4)C3)n(CC3CC3)c12 (single isomer, unassigned)",,,1000 to 10000 nM
COc1ccccc1-c1cc(-c2nccn2C)cc2cc(C3=CCCN(C(=O)CCn4ccnn4)C3)[nH]c12,,,< 100 nM
O=C(CCn1ccnn1)N1CCC=C(c2ccc3cc(C(=O)N4CCOC[C@@H](O)C4)[nH]c3c2F)C1,,,1000 to 10000 nM
CC(C#N)CNC(=O)c1cc2ccc(C3=CCCN(C(=O)CCn4ccnn4)C3)c(F)c2[nH]1 (centres unmarked),,,1000 to 10000 nM
CN(C)C(=O)c1cc(-c2ccccc2)c2[nH]c(C3=CCCN(C(=O)CCn4ccnn4)C3)cc2c1,,,< 100 nM
"CN(C)C(=O)c1cc2ccc([C@H]3CCCN(C(=O)NCc4ccc(C(N)=O)cc4)C3)c(F)c2[nH]1 (single isomer, unassigned)",,,1000 to 10000 nM
"CCc1nc(C)ccc1-c1cc(C(=O)N2Cc3cnn(C)c3C2)cc2c(F)c([C@H]3CCCN(C(=O)CCn4ccnn4)C3)n(CC3CC3)c12 (single isomer, unassigned)",,,1000 to 10000 nM
COc1ccccc1-c1cc(C2=CCCN(C(=O)CCn3ccnn3)C2)c(F)c2[nH]c(C(=O)N3CCN(c4cn5ccnc5cn4)CC3)cc12,,,< 100 nM
"COc1ccccc1-c1cc(C2=CCCN(C(=O)CCn3ccnn3)C2)c(F)c2[nH]c(C(=O)N3CCCC[C@@H]3CO)cc12 (single isomer, unassigned)",,,< 100 nM
CN(C)C(=O)c1cc2ccc(C3CCCN(C(=O)NCc4ccc(C(N)=O)cc4)C3)c(F)c2[nH]1 (centres unmarked),,,< 100 nM
"COc1ccccc1-c1cc(C2=CCCN(C(=O)CCn3ccnn3)C2)c(F)c2[nH]c(C(=O)N3CCC[C@H](C(=O)N4CCCC4)C3)cc12 (single isomer, unassigned)",,,< 100 nM
"COc1ccccc1-c1cc(C2=CCCN(C(=O)CCn3ccnn3)C2)c(F)c2[nH]c(C(=O)N3CC[C@@H](N4CCOCC4)C3)cc12 (single isomer, unassigned)",,,< 100 nM
"COc1ccccc1-c1cc(C2=CCCN(C(=O)CCn3ccnn3)C2)c(F)c2[nH]c(C(=O)N3CCC[C@H](OC)C3)cc12 (single isomer, unassigned)",,,100 to 1000 nM
CN(C)C(=O)c1nc2ccc(C3=CCCN(C(=O)CCn4ccnn4)C3)cc2o1,,,10000 to 100000 nM

SMILES,IC50 [1],IC50 ([2]; 30 minutes at room temperature),IC50 ([2]; 30 minutes room temperature)
COc1ccccc1-c1cc(C2=CCCN(C(=O)CCn3ccnn3)C2)c(F)c2cc(N3CCCC3=O)oc12,,,< 100 nM
COc1ccccc1-c1cc(C(=O)N(C)C)cc2cc(C3=CCCN(C(=O)CCn4ccnn4)C3)oc12,,,< 100 nM
COc1cncc(C)c1-c1cc(C2=CCCN(C(=O)CCn3ccnn3)C2)c(F)c2[nH]c(C(=O)N(C)C)cc12,,,< 100 nM
COc1ccccc1-c1cc(C(=O)N(C)C)cc2sc(C3=CCCN(C(=O)CCn4ccnn4)C3)nc12,,,< 100 nM
COc1ccccc1-c1cc(C2=CCCN(C(=O)CCn3ccnn3)C2)c(F)c2[nH]c(C(=O)N3CC(=O)NC[C@H]3C)cc12,,,100 to 1000 nM
COc1ccccc1-c1cc(C2=CCCN(C(=O)CCn3ccnn3)C2)c(F)c2cc(C(=O)N(C)C)oc12,,,< 100 nM
"O=C(CCn1ccnn1)N1CCC[C@@H](c2nc3cc(-n4ccccc4=O)ccc3o2)C1 (single isomer, unassigned)",,,10000 to 100000 nM
COc1ccccc1-c1cc(C2=CCCN(C(=O)CCn3ccnn3)C2)c(F)c2[nH]c(C(=O)N3CCN(C4CCN(C)CC4)CC3)cc12,,,< 100 nM
"CC(=O)N1CCC[C@H](c2cc(-c3ccc(N4CCNCC4)cc3Cl)c3cc(C(=O)N(C)C)[nH]c3c2F)C1 (single isomer, unassigned)",,,100 to 1000 nM
"CCc1nc(C)ccc1-c1cc(C(=O)N2Cc3cnn(C)c3C2)cc2c(F)c(C3CCCN(C(=O)CCc4nccs4)C3)n(CC3CC3)c12 (single isomer, unassigned)",,,1000 to 10000 nM
COc1ccccc1-c1cc(C2=CCCN(C(=O)CCn3ccnn3)C2)c(F)c2[nH]c(C(=O)N3CCN(c4ccc(Cl)nn4)CC3)cc12,,,< 100 nM
COc1ccccc1-c1cc(C2=CCCN(C(=O)CCn3ccnn3)C2)c(F)c2cc(N3CCCCC3=O)oc12,,,< 100 nM
COc1ccccc1-c1cc(C2=CCCN(C(=O)CCn3ccnn3)C2)c(F)c2[nH]c(C(=O)N3CCN(c4cc(F)cc(F)c4OC)CC3)cc12 [Example I-357],,< 100 nM,
COc1ccccc1-c1cc(-c2ncccc2C)cc2cc(C3=CCCN(C(=O)CCn4ccnn4)C3)[nH]c12,,,100 to 1000 nM
"COc1ccc(C)cc1-c1cc(C2=CCCN(C(=O)[C@@H]3Cc4ccccc4CN3C=O)C2)cc2cc(C(=O)N(C)C)oc12 (single isomer, unassigned)",,,1000 to 10000 nM
"CCc1cnccc1-c1cc(C(=O)N2Cc3cnn(C)c3C2)cc2c(F)c([C@@H]3CCCN(C(=O)CCn4ccnn4)C3)n(CC3CC3)c12 (single isomer, unassigned)",,,1000 to 10000 nM
COc1ccccc1-c1cc(C2=CCCN(C(=O)CCn3ccnn3)C2)c(F)c2cc(-n3cccn3)oc12,,,< 100 nM
"CCc1nc(C)ccc1-c1cc(C(=O)N2Cc3cnn(C)c3C2)cc2c(F)c([C@@H]3CCCN(C(=O)CCn4ccnn4)C3)n(CC3CC3)c12 (single isomer, unassigned)",,,1000 to 10000 nM
"CCc1nc(C)ccc1-c1cc(C(=O)N2CCN(C3CC3)CC2)cc2c(F)c(C3CCCN(C(=O)CCn4ccnn4)C3)n(CC3CC3)c12 (single isomer, unassigned)",,,1000 to 10000 nM
CN(C)C(=O)c1cc2c(F)c(C3=CCCN(C(=O)CCn4ccnn4)C3)cc(-c3ccccc3)c2o1,,,< 100 nM
COc1ccccc1-c1cc(C(=O)N(C)C)cc2c(F)c(C3=CCCN(C(=O)CCn4ccnn4)C3)[nH]c12,,,< 100 nM
CCc1nc(C)ccc1-c1cc(C(=O)N2CCN(c3ncc(F)cc3OC)CC2)cc2c(F)c(C3CCCN(C(=O)C(=O)O)C3)n(CC3CC3)c12 (centres unmarked) [Example I-1335],,,1000 to 10000 nM
COc1ccccc1-c1cc(C2=CCCN(C(=O)CCn3ccnn3)C2)c(F)c2[nH]ncc12,,,< 100 nM
"COc1ccccc1-c1cc(C2=CCCN(C(=O)CCn3ccnn3)C2)c(F)c2[nH]c(C(=O)N3CCOC[C@H]3C)cc12 (single isomer, unassigned)",,,< 100 nM
"COc1ccccc1-c1cc(C2=CCCN(C(=O)CCn3ccnn3)C2)c(F)c2[nH]c(C(=O)N[C@@H]3C=CS(=O)(=O)C3)cc12 (single isomer, unassigned)",,,100 to 1000 nM

# Where two headings read alike, the source gives them in different places.
